According to patent US10071090B2 (priority 2014, dated 2018):

In the case of `CN1CC[C@]23c4c5ccc(O)c4O[C@H]2C(=O)CC[C@H]3[C@H]1C5` [Hydromorphone], the Required flux (derived from daily dose, bioavailability and a theoretical patch size) is reported as 11.4 μg/cm^2/h and the “Dose after first pass effect” value (from oral dose (mg/day) and bioavailability) is reported as 10.9 mg/day.
